From ChEMBL document CHEMBL4808148, “HDAC6 screening dataset using tau-based substrate in an enzymatic assay yields selective inhibitors and activators” (2021)
This is a selection; strong and weak results do not stand in their true shares.

Key:
[1] = target: T1, Protein deacetylase HDAC6 (Homo sapiens) (UniProt Q9UBN7); details: at 10 µM
T1 sequence (whole entry): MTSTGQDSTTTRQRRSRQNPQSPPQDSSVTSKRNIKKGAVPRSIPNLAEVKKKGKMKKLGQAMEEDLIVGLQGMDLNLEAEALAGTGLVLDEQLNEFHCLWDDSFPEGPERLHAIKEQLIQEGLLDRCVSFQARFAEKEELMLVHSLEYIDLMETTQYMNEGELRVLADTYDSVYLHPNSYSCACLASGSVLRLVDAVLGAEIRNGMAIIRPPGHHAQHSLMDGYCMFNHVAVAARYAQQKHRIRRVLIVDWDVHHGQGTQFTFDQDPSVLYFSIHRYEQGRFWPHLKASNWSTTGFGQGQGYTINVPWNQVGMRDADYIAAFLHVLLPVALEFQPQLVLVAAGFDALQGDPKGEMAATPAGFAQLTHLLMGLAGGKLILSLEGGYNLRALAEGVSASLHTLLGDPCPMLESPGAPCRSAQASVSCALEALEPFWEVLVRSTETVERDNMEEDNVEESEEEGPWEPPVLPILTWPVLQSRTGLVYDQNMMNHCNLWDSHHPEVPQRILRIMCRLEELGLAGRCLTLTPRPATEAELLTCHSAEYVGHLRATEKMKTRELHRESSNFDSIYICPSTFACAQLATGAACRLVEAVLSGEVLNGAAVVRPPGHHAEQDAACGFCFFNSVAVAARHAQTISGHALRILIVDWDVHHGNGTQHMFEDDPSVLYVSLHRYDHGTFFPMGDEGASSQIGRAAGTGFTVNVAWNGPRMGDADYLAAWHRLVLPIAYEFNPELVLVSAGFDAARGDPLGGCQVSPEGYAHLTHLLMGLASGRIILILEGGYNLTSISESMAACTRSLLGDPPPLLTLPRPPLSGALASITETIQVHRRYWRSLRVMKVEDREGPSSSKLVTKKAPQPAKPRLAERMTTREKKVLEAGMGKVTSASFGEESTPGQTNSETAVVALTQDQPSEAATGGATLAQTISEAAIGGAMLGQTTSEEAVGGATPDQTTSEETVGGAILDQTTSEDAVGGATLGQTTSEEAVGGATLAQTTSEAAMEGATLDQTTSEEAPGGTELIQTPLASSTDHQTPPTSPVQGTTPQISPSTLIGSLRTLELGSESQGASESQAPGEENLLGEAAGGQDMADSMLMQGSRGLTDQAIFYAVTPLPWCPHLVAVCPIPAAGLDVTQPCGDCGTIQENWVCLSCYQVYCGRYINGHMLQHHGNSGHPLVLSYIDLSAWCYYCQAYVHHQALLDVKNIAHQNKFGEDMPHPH

[2] = target: T1, Protein deacetylase HDAC6 (Homo sapiens); details: at 10 µM; remark: listed apart in the source

Compound | inhibition [1] [%] | inhibition [2] [%]
CCC(CO[N+](=O)[O-])(CO[N+](=O)[O-])CO[N+](=O)[O-] | 14.1 | 1.36
CN(C)CCS | -8.55 | 1.8
